{"source": "patent EP2692332A2", "about": "“Composition for the treatment of callus, corns, moles, telangiectasias, and psoriasis” (Unigroup ApS, priority 2012, dated 2014)", "assay_type": "physicochemical", "settings": "solvent ethyl lactate", "data": [{"molecule": "O=C(O)c1ccccc1O", "note": "[salicylic acid]", "values": [{"measurement": "concentration at which precipitated in ethyl lactate", "result": 40, "unit": "% w/w"}]}]}
